Read-outs that look alike come from different tables or passages of the source.
What was measured:
[1] = system: C. albicans (CA-1, Strain SLU-1); assay: Radial diffusion assay; assay type: cell-based, Candida albicans; details: for Plate Assay (nmol), pure peptide activity: HPLC-purified peptide; for Plate Assay (nmol), pure peptide activity / Plate Assay (nmol), crude peptide activity: nanomoles required to achieve a net 30 mm^2 zone (log titration curve); for C. albicans pmol/30 mm^2 zone: pmoles of peptide added to well to achieve a 30 mm^2 zone, PROBIT analysis, crude or purified (P′) peptide
Procedure: In the radial diffusion assay procedures, the CA-1 cultures and peptide solutions were prepared as in the broth assay procedure described above. Ten mL of molten underlayer agarose comprising 3% Sabouraud Dextrose broth, 1% agarose (Pharmacia, Piscataway, N.J.), 0.02% Tween 20, and 10 mM sodium phosphate at pH 7.4, was added to polystyrene tubes and maintained in a 56° C. water bath until the addition of yeast. Tubes were cooled to approximately 45° C., yeast were added to give a final concentration of 1×10^6 CFU/mL, and the tubes were mixed again by inverting. The contents were poured into level square petri dishes and distributed evenly. […] A series of wells were punched into the hardened agarose using a sterile 3 mm punch attached to a vacuum apparatus.
Peptides to be assayed were 2-fold serially diluted in Dulbecco's PBS (D-PBS) starting from a concentration of approximately 1 mg/mL. Five μL of each dilution were added to each well and the plates were incubated at 37° C. for 3 hours. An overlayer of 10 mL of molten agarose comprising 6% Sabouraud Dextrose broth, 1% agarose, and 10 mM sodium phosphate, pH 7.4, (at approximately 45° C.) was then added and plates were incubated overnight at 37° C. Following this overnight incubation, a dilute Coomassie solution was poured into the plates and allowed to stain for 24 hours.
Clear zones of growth inhibition around each well were measured with calipers. The actual area of growth inhibition (mm^2) was calculated by subtracting the area of the well. Table 1 below sets out the results of the radial diffusion assays for tested peptides in terms of the number of picomoles (pmol) of peptide required to establish a 30 mm^2 area of growth inhibition calculated by PROBIT analysis (e.g., calculated from regression of the linear portion of log-concentration dose-response curve, log pmol/well vs. net area of inhibition).

[2] = system: mouse RAW 264.7 cells incubated with E. coli O113 LPS; details: RAW 264.7 cells with E. coli O113 LPS; concentration reversing LPS growth inhibition by 50%
Procedure: (§1) An in vitro LPS neutralization screening assay for evaluation of Domain III derived peptides was developed (as described in co-owned and co-pending U.S. patent application Ser. No. 08/306,473) which provides both a measure of efficacy of each peptide (EC50) and of the toxicity/growth inhibition of each peptide (IC50).
(§2) The cells were counted and their concentration adjusted to 2×10^5 cells/mL and 100 μL aliquots were added to each well of a 96-well microtitre plate. […] This incubation was performed in the absence or presence of peptides in varying concentrations between 25 ng/mL and 50 μg/mL. […] Cell proliferation was quantitatively measured by the addition of 1 μCi/well [^3H]-thymidine 5 hours after the time of initiation of the assay. After the 15-hour incubation, labeled cells were harvested onto glass fiber filters with a cell harvester (Inotech Biosystems, INB-384, Sample Processing and Filter Counting System, Lansing, Mich.).

[3] = system: mouse RAW 264.7 cells
Procedure: as §1, §2

[4] = RAW 264.7 cell growth inhibited by 50%

SMILES	In Vitro LPS Neutralization EC50 [2]	IC50 (toxicity/growth inhibition of peptide) [3, 4]	further results
CC[C@H](C)[C@H](NC(=O)[C@H](CC(C)C)NC(=O)[C@H](Cc1c[nH]c2ccccc12)NC(=O)[C@H](CCCCN)NC(=O)[C@@H](NC(=O)[C@H](CCCCN)NC(=O)[C@H](CO)NC(=O)[C@@H](N)CCCCN)C(C)C)C(=O)N[C@@H](CCC(N)=O)C(=O)N[C@@H](CC(C)C)C(=O)N[C@@H](Cc1ccccc1)C(=O)N[C@@H](Cc1c[nH]cn1)C(=O)N[C@@H](CCCCN)C(=O)N[C@@H](CCCCN)C(N)=O [Peptide 97]			Plate Assay (nmol), pure peptide activity [1]: 0.304 nmol; Plate Assay (nmol), crude peptide activity [1]: 0.701 nmol
CC[C@H](C)[C@H](NC(=O)[C@H](CC(C)C)NC(=O)[C@H](Cc1c[nH]c2ccccc12)NC(=O)[C@H](CCCCN)NC(=O)[C@@H](NC(=O)[C@@H](N)CCCCN)C(C)C)C(=O)N[C@@H](CCC(N)=O)C(=O)N[C@@H](CC(C)C)C(=O)N[C@@H](Cc1ccccc1)C(=O)N[C@@H](Cc1c[nH]cn1)C(=O)N[C@@H](CCCCN)C(=O)N[C@@H](CCCCN)C(N)=O [Peptide 286]			Plate Assay (nmol), pure peptide activity [1]: 0.253 nmol; Plate Assay (nmol), crude peptide activity [1]: 1.216 nmol
CC[C@H](C)[C@H](NC(=O)[C@H](CC(C)C)NC(=O)[C@H](Cc1c[nH]c2ccccc12)NC(=O)[C@@H](CCCCN)NC(=O)[C@H](N)CCCCN)C(=O)N[C@@H](CCC(N)=O)C(=O)N[C@@H](CC(C)C)C(=O)N[C@H](CCCCN)C(=O)N[C@H](CCCCN)C(N)=O [XMP.342P]	NA (NA for EC50 means no evidence neutralization of LPS at up to 50 μg/ml)	NA (NA for IC50 means no evidence of decreased RAW cell growth at up to 50 μg/ml)	
CC[C@H](C)[C@H](NC(=O)[C@H](CC(C)C)NC(=O)[C@H](Cc1c[nH]c2ccccc12)NC(=O)[C@@H]1CCCN1)C(=O)N[C@@H](CCC(N)=O)C(=O)N[C@@H](CC(C)C)C(=O)N[C@@H](Cc1ccccc1)C(=O)N[C@@H](Cc1c[nH]cn1)C(=O)N[C@@H](CCCCN)C(=O)N[C@@H](CCCCN)C(=O)O [XMP.353P]	4.42 ± 0.56 µg/mL	NA (NA for IC50 means no evidence of decreased RAW cell growth at up to 50 μg/ml)	
CC[C@@H](C)[C@@H](NC(=O)[C@@H](CC(C)C)NC(=O)[C@@H](Cc1c[nH]c2ccccc12)NC(=O)[C@H](N)CCCCN)C(=O)N[C@H](CCC(N)=O)C(=O)N[C@H](CC(C)C)C(=O)N[C@H](Cc1ccccc1)C(=O)N[C@H](Cc1c[nH]cn1)C(=O)N[C@H](CCCCN)C(=O)N[C@H](CCCCN)C(N)=O [XMP.365P]	0.52 ± 0.07 µg/mL		IC50 (toxicity/growth inhibition of peptide) [3]: >25 µg/mL
CC[C@@H](C)[C@@H](NC(=O)[C@@H](CC(C)C)NC(=O)[C@@H](Cc1c[nH]c2ccccc12)NC(=O)[C@@H](CCCCN)NC(C)=O)C(=O)N[C@H](CCC(N)=O)C(=O)N[C@H](CC(C)C)C(=O)N[C@H](Cc1ccccc1)C(=O)N[C@H](Cc1c[nH]cn1)C(=O)N[C@H](CCCCN)C(=O)N[C@H](CCCCN)C(N)=O [XMP.366P]			IC50 (toxicity/growth inhibition of peptide) [3]: 18.28 ± 2.57 µg/mL
CC[C@H](C)[C@H](NC(=O)[C@H](CC(C)C)NC(=O)[C@H](Cc1c[nH]c2ccccc12)NC(=O)[C@H](CCCCN)NC(C)=O)C(=O)N[C@@H](CCC(N)=O)C(=O)N[C@@H](CC(C)C)C(=O)N[C@@H](Cc1ccccc1)C(=O)N[C@@H](Cc1c[nH]cn1)C(=O)N[C@@H](CCCCN)C(=O)N[C@@H](CCCCN)C(N)=O [XMP.373P]	12.79 ± 0.19 µg/mL		IC50 (toxicity/growth inhibition of peptide) [3]: >25 µg/mL
CC[C@H](C)[C@H](NC(=O)[C@H](C)NC(=O)[C@H](Cc1c[nH]c2ccccc12)NC(=O)[C@@H]1CCCN1)C(=O)N[C@@H](CCC(N)=O)C(=O)N[C@@H](CC(C)C)C(=O)N[C@@H](CCCCN)C(=O)N[C@@H](CCCCN)C(N)=O [XMP.378P]	NA (NA for EC50 means no evidence neutralization of LPS at up to 50 μg/ml)	NA (NA for IC50 means no evidence of decreased RAW cell growth at up to 50 μg/ml)	
CC[C@H](C)[C@H](NC(=O)[C@H](C)NC(=O)[C@H](Cc1c[nH]c2ccccc12)NC(=O)[C@@H]1CCCN1)C(=O)N[C@@H](CCC(N)=O)C(=O)N[C@@H](CC(C)C)C(=O)N[C@@H](CCCCN)C(=O)N[C@@H](CCCCN)C(N)=O [XMP.378]			C. albicans pmol/30 mm^2 zone [1]: 2,084 pmol/30 mm^2 zone
CC[C@H](C)[C@H](NC(=O)[C@H](CC(C)C)NC(=O)[C@H](Cc1c[nH]c2ccccc12)NC(=O)CNC(=O)[C@@H](N)CCCCN)C(=O)N[C@@H](CCC(N)=O)C(=O)N[C@@H](CC(C)C)C(=O)N[C@@H](Cc1ccccc1)C(=O)N[C@@H](Cc1c[nH]cn1)C(=O)N[C@@H](CCCCN)C(=O)N[C@@H](CCCCN)C(N)=O [XMP.389P]	1.78 ± 0.09 µg/mL	NA (NA for IC50 means no evidence of decreased RAW cell growth at up to 50 μg/ml)	
CC[C@H](C)[C@H](NC(=O)[C@H](CC(C)C)NC(=O)[C@H](Cc1c[nH]c2ccccc12)NC(=O)CNC(=O)[C@@H](NC(=O)[C@@H](N)CCCCN)C(C)C)C(=O)N[C@@H](CCC(N)=O)C(=O)N[C@@H](CC(C)C)C(=O)N[C@@H](Cc1ccccc1)C(=O)N[C@@H](Cc1c[nH]cn1)C(=O)N[C@@H](CCCCN)C(=O)N[C@@H](CCCCN)C(N)=O [XMP.391P]	1.49 ± 0.02 µg/mL	NA (NA for IC50 means no evidence of decreased RAW cell growth at up to 50 μg/ml)	
CC[C@H](C)[C@H](NC(=O)[C@H](CC(C)C)NC(=O)[C@H](C)NC(=O)CNC(=O)[C@@H](NC(=O)[C@H](CCCCN)NC(=O)[C@H](CO)NC(=O)[C@H](CCCCN)NC(=O)[C@@H]1CCCN1)C(C)C)C(=O)N[C@@H](CCC(N)=O)C(=O)N[C@@H](CC(C)C)C(=O)N[C@@H](Cc1ccccc1)C(=O)N[C@@H](Cc1c[nH]cn1)C(=O)N[C@@H](CCCCN)C(=O)N[C@@H](CCCCN)C(N)=O [XMP.406P]	>50 µg/mL	NA (NA for IC50 means no evidence of decreased RAW cell growth at up to 50 μg/ml)	
CC[C@H](C)[C@H](NC(=O)[C@H](CC(C)C)NC(=O)[C@H](C)NC(=O)CNC(=O)[C@@H](NC(=O)[C@H](CCCCN)NC(=O)[C@H](CO)NC(=O)[C@H](CCCCN)NC(=O)[C@@H]1CCCN1)C(C)C)C(=O)N[C@@H](CCC(N)=O)C(=O)N[C@@H](CC(C)C)C(=O)N[C@@H](Cc1ccccc1)C(=O)N[C@@H](Cc1c[nH]cn1)C(=O)N[C@@H](CCCCN)C(=O)N[C@@H](CCCCN)C(N)=O [XMP.406]			C. albicans pmol/30 mm^2 zone [1]: 423 pmol/30 mm^2 zone
CC[C@H](C)[C@H](NC(=O)[C@H](CC(C)C)NC(=O)[C@H](C)NC(=O)CNC(=O)[C@@H](NC(=O)[C@H](CCCCN)NC(=O)[C@H](CO)NC(=O)[C@H](CCCCN)NC(=O)[C@@H]1CCCN1)C(C)C)C(=O)N[C@@H](CCC(N)=O)C(=O)N[C@@H](CC(C)C)C(=O)N[C@@H](Cc1ccccc1)C(=O)N[C@@H](Cc1c[nH]cn1)C(=O)N[C@@H](CCCCN)C(=O)N[C@@H](CCCCN)C(=O)N[C@@H](CC(=O)O)C(N)=O [XMP.407]			C. albicans pmol/30 mm^2 zone [1]: 1,240 pmol/30 mm^2 zone
